The chains behind the UniProt entries cited, without tags or fusion partners. Residues count along the entry.
UniProt Q63604, 32-821 limits assumed: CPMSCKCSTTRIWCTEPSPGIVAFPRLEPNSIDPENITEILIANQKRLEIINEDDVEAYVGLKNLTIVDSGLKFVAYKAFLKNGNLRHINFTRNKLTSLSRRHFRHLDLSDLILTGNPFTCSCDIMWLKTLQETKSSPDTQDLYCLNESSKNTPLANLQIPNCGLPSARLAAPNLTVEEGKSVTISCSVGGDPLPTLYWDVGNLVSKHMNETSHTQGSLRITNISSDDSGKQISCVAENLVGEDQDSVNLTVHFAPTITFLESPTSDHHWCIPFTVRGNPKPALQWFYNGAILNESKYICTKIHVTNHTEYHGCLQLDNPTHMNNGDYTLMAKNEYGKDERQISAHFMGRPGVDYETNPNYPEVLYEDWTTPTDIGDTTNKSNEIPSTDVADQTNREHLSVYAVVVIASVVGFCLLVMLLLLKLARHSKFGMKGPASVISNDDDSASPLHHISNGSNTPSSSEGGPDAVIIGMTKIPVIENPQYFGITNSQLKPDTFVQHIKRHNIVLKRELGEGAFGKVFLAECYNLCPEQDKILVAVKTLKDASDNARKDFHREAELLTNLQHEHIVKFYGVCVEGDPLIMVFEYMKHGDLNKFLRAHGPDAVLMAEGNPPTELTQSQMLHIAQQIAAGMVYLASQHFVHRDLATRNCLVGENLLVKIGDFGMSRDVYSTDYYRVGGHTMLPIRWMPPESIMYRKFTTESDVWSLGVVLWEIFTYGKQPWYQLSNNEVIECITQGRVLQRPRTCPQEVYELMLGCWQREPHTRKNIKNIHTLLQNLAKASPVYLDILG
UniProt Q16620, 32-430 limits assumed: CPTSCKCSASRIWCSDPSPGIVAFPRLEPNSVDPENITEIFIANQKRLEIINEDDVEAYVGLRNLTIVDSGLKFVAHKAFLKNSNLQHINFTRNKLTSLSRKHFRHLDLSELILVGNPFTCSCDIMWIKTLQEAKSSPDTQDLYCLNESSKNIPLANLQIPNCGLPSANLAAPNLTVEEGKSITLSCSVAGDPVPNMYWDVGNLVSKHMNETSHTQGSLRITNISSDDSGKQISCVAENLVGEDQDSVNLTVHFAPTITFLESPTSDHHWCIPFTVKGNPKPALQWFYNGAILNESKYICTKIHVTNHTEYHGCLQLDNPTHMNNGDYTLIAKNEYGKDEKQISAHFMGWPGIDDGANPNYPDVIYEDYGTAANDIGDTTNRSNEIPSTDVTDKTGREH

In publication PMC8398766, “Do Small Molecules Activate the TrkB Receptor in the Same Manner as BDNF? Limitations of Published TrkB Low Molecular Agonists and Screening for Novel TrkB Orthosteric Agonists” (Pharmaceuticals, 2021):

Legend:
[1] = PAMPA; details: 10 μM, 4 h
Experimental: An artificial membrane was prepared in 96-well filter plates (Millipore MultiScreen IP Filter Plate). Each well of the donor plate was coated with 5 μL of the 2% lecithin/dodecane solution. Next, in each well of the donor plate, 150 μL of a compound-containing donor solution (compound dissolved in 5% DMSO, PBS) was added. All the compounds were added at a concentration of 10 μM. The compounds were prepared from 10 mM stock solutions in DMSO. The 300 μL of buffer (5% DMSO in PBS, pH 7.4) was transferred to each well of the PTFE acceptor plate in technical triplicates. The compound-filled donor plate was placed into the acceptor plate. Incubation was carried out for 4 h at room temperature.
Samples were taken after incubation from donor and acceptor compartments, diluted with 2 volumes of acetonitrile containing a 200 nM concentration of the internal standard (imipramine). The solutions from the donor plate were diluted if necessary. Testosterone (10 μM) and atenolol (10 μM) were used as high and low reference permeability compounds, respectively.
The compound concentration was determined by LC-MS/MS (an Agilent 6460 MS/MS mass spectrometer equipped with Agilent Infinity II 1290 UHPLC, Agilent Technologies). A calibration curve was prepared to quantify the contents of the compound in the test solution.

[2] = system: Caco-2 monolayer; assay: Caco-2 passive permeability; details: 2 h
Experimental: Passive permeability was investigated in 24-well-plate format using differentiated Caco-2 cells (CacoReady 24 well, ReadyCell, Barcelona, Spain), according to a previously published protocol with proprietary modifications and with restrictions described in the product manual. Bidirectional (apical-to-basal and basal-to-apical, AB, and BA) passive permeability was assessed in HBSS buffer containing calcium, magnesium, 5 mM glucose, and a modified transporter inhibitor cocktail (final concentrations of 5 μM elacridar and 20 μM cyclosporine A). Samples were collected at time 0 (from the donor compartment) and after 2 h (from the donor and the acceptor compartments) and diluted with the assay buffer (donor samples) and MeOH (all samples) containing internal standard (100 nM imipramine), followed by a brief centrifugation to remove any buffer precipitates prior to LC-MS analysis. Compounds’ contents in the samples were measured using a UHPLC system (Vanquish Flex, Thermo Fisher Scientific) coupled to a Triple Quad MS detector (QTRAP 5500+, Sciex, Framingham, MA, USA) in multiple reaction monitoring (MRM) mode. Conditions of gradient LC separation were adjusted individually to each compound. Passive permeability (Papp) was then calculated according to the product manual. Atenolol and diclofenac were used as low and high permeability reference compounds, respectively. […]

[3] = target: TrkB receptor (Rattus norvegicus, UniProt Q63604); assay: ELFI TrkB phosphorylation, orthosteric agonist mode, SN56 T48 cell line; details: 0.125–100 μM, 15 min
[4] = target: exTrkB (Homo sapiens, UniProt Q16620); assay: MST binding affinity (Kd) determination; details: non-binding compounds given as 0
Experimental: The gene encoding the extracellular domain of the human TrkB receptor (exTrkB), residues 1−430, was cloned into the pCMV2 expression vector. Protein expression was performed in suspension-cultivated mammalian ExpiCHO-S cells using the ExpiFectamine (Thermo Scientific, Thermo Fisher Scientific, Waltham, MA, USA) transfection reagent. The secreted protein was purified using a four-step protocol. Clarified culture medium was precipitated with ammonium sulfate added to a final concentration of 1.5 M and centrifuged (235,000× g, 60 min at 4 °C). The supernatant after centrifugation was applied on a HiTrap Phenyl column (GE Healthcare, Chicago, IL, USA) equilibrated with buffer A (25 mM Tris, 1 mM DTT; pH 7.5) with 1.5 M ammonium sulfate. Bound proteins were eluted with a linear gradient of buffer A. The eluted proteins were dialyzed overnight in buffer A and loaded on a CaptoQ ImpRes column (GE Healthcare) equilibrated with buffer A with 50 mM NaCl. The bound proteins were eluted with a linear gradient of buffer A with 1 M NaCl. The fractions containing exTrkB protein were pooled, and MnCl2 and CaCl2 (1mM final concentration each) were added. […] The protein concentration was determined from the absorption at 280 nm using an UV NanoDrop 1000 spectrophotometer (Thermo Scientific).
The exTrkB was labeled with a Monolith Protein Labeling Kit RED-NHS 2nd Generation (NanoTemper Technologies GmbH, Munich, Germany) according to the manufacturer’s protocol. The labelling efficiency was always determined spectrophotometrically with NanoPhotometer® NP80 (Impel) in line with the manufacturer’s recommendations. […]
For primary screening (single-point MST experiments for signal amplitude determination), each of the 987 screened compounds were diluted in MST buffer + 0.1% Tween20 to a final concentration of 0.5 mM. […] The experiments were performed using nano-blue excitation, LED light adjusted to 20% excitation power, and MST power set to medium, and the fluorescence signal during thermophoresis was detected after 30 s. […]

[5] = Metabolic stability in mouse liver microsomes
Experimental: (§1) First-phase metabolic stability was investigated in vitro using human (HLM) and mouse (MLM) liver microsomes (Gibco, Thermo Fisher Scientific) as described in Gunerka et al., 2020, with some modifications. Verapamil and warfarin were used as high and low clearance reference compounds, respectively. Test compounds (1 μM) were incubated in the dark at 37 °C with mixing (500 rpm) in 100 mM potassium phosphate buffer containing microsomes (0.5 mg/mL), NADPH (1–1.2 mM), and MgCl2 (3.3 mM). NADPH, a cofactor for CYP family enzymes, was prepared prior to the experiment by reducing NADP with G6P dehydrogenase (Merck, Darmstadt, Germany) (13.2 mM G6P, 5.2 mM NADP, 3.2 U/mL G6P dehydrogenase, 25 min at 30 °C, 500 rpm). The negative control contained buffer instead of NADPH solution. Samples were collected at 0, 10, 20, and 40 min or 0 and 40 min for the negative controls. The reaction was stopped by protein precipitation in 4 volumes of ice cold MeOH containing 100 nM imipramine as an internal standard. […] The compounds’ disappearance from the reactions was measured using the LC-MS system as described for Caco-2 permeability. The elimination rate constant (k) was calculated as a module slope of a log-linear regression of substrate concentration vs. time. Then, the intrinsic clearance (Clint) was calculated as k per microsomal protein content (d = 0.5 mgprotein/mL).

[6] = Metabolic stability in human liver microsomes
Experimental: as §1

[7] = Chemical stability pH 7.4; details: pH = 7.4, 4 h

- PAMPA [1]: 0.03 10^−6·cm/s
- Papp,AB ([2]; Caco-2, apical to basal): 0.61 10^−6·cm/s
- Papp,BA ([2]; Caco-2, basal to apical): 10.86 10^−6·cm/s
- Orthosteric activity (induction of TrkB phosphorylation) [3]: did not observe any orthosteric activity
- Kd [4]: 2320 nM
- Clint MLM ([5]; 1 μM, phase I): 3.3 μL·min^−1·mgprotein^−1
- Metabolic stability in MLM (classification) ([5]; compared with verapamil): very good metabolic stability
- Clint HLM ([6]; 1 μM, phase I): 10 μL·min^−1·mgprotein^−1
- Metabolic stability in HLM (classification) ([6]; compared with verapamil): very good metabolic stability
- Chemical Stability [% of Degradation] [7]: Stable
SMILES: Cc1ccc(C(=O)C2=C(O)C(=O)N(c3cc(C)on3)C2c2ccncc2)cc1 (stereo not shown)
